Measured values reported in patent publication US11497765B1, “Thioctamer expedites wound healing” (King Abdulaziz University, priority 2022, dated 2022).

Experiment: Thioctamer zeta potential and particle size evaluation (Zetasizer Nano ZSP)
Type: physicochemical
Procedure: Thioctamer was prepared by conjugation of GA and TA in a 1:1 molar ratio. TA was solvated in deionized water (with added of triethanolamine in a 1:1 molar ratio with the amount of TA). GA was dissolved separately in deionized water. The two aqueous solutions were mixed and then vortexed for 60 sec. The prepared thioctamer was assessed for zeta potential and particle size utilizing a Zetasizer Nano ZSP (Malvern Instruments Ltd., Malvern, UK).

Substance: L-alanine compound with L-tyrosine compound with L-lysine compound with L-glutamic acid acetic acid [GA]
- zeta potential: 23±4.2 mV
